The source of these data is patent US11091496B2, “Opioid ketal compounds and uses thereof” (priority 2013, dated 2021).

Read-outs that look alike come from different tables or passages of the source.

The format of this series is physicochemical.

`CN1CC[C@]23c4c5ccc(O)c4OC2C2(CCC3[C@H]1C5)OCCO2` (stereo partly shown): for the setting “hydrolyzed in 19 hours”, the “Hydrolysis in 0.1 N HCl at 37° C.” value is reported as 6.6% hydrolyzed in 19 hours.
With `COc1ccc2c3c1OC1C4(CCC5(O)[C@@H](C2)N(C)CC[C@]315)OCC(C)O4` (stereo partly shown), the “Hydrolysis in 0.1 N HCl at 37° C.” value (hydrolyzed in four hours) was 1% hydrolyzed in four hours.
Take `COc1ccc2c3c1OC1C4(CCC5[C@@H](C2)N(C)CC[C@@]351)OC(C)C(C)O4` (stereo partly shown): the “Hydrolysis in 0.1 N HCl at 37° C.” value (hydrolyzed in 20 hours) amounted to 14.3% hydrolyzed in 20 hours.
As for `COc1ccc2c3c1OC1C4(CCC5[C@@H](C2)N(C)CC[C@@]351)OCCO4` (stereo partly shown), the “Hydrolysis in 0.1 N HCl at 37° C.” value (hydrolyzed in four hours) is reported as 2.5% hydrolyzed in four hours.
